Consider 1 substance from patent US5569591A, “Analytical or monitoring apparatus and method” (priority 1990, dated 1996).

Amino acid sequences for entries named in this document (tags omitted). A change or cut given only in a name is not applied to a line headed by its entry.
UniProt P05030: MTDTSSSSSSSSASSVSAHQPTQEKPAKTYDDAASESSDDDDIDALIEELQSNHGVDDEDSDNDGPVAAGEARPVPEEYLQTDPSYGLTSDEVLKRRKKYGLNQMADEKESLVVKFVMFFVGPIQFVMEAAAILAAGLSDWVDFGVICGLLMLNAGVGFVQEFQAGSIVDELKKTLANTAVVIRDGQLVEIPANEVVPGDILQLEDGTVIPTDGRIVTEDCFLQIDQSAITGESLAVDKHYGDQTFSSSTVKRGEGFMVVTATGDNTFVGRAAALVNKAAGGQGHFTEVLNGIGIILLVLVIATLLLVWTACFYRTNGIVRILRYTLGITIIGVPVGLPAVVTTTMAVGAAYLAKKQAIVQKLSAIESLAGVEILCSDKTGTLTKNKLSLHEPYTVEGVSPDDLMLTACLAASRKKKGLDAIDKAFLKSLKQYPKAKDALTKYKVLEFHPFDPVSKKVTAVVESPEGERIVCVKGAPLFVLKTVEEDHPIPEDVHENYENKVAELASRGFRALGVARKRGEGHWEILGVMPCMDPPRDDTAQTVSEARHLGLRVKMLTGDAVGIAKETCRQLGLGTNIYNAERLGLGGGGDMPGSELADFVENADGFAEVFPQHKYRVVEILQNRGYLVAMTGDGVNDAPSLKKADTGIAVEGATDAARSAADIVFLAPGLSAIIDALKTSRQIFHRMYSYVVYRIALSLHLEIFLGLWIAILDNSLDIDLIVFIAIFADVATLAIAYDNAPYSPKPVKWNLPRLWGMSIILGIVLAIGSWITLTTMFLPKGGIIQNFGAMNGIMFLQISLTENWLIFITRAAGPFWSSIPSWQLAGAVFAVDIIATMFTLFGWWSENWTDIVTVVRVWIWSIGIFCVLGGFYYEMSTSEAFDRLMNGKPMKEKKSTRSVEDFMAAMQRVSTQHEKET

This test has as its target H+-ATPase in the plasma membrane of Saccharomyces cerevisiae (Saccharomyces cerevisiae, UniProt P05030). The test is classed as cell-based. Details: endogenous in cells; host or cells: intact S. cerevisiae cells in suspension. Particulars: resting cell suspension; FIG. 12; read-out: Ki app (magnitude of the 3rd harmonic, ordinate plotted using a dB scale).

Turning to sodium metavanadate, the Ki was roughly 150 µM.
